# US5338845A, “Aspergillus species, cyclic dimeric dipeptide derivative substance P antagonist biosynthetic products thereof, and process for preparation thereof” (Sterling Winthrop Inc., priority 1992, dated 1994)
# Sequences of proteins named here, by UniProt entry; tags and fusion partners are left off.
# UniProt P30547, whole entry: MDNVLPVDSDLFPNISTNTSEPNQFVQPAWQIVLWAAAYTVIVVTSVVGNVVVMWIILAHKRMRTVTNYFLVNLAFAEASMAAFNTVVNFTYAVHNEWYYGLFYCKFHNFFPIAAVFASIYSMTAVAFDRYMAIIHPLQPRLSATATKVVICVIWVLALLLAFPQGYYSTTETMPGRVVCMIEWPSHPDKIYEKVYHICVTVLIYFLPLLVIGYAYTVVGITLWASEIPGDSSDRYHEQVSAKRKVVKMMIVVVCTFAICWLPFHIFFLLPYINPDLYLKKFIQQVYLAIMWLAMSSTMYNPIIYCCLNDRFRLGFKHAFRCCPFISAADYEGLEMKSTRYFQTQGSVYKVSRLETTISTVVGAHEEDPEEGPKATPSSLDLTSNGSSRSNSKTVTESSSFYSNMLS
# UniProt P25103, whole entry: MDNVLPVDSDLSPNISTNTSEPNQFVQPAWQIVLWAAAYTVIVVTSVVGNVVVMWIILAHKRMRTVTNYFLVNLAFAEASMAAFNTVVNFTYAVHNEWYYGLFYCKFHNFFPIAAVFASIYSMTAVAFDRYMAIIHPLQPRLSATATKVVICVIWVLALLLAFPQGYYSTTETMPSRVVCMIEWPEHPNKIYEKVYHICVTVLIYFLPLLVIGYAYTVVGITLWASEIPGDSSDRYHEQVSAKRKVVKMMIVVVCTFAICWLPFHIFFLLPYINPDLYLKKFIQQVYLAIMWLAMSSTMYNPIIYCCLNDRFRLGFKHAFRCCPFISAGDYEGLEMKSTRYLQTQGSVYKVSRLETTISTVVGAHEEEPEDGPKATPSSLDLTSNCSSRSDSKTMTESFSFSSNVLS
# Target: NK1 (Cavia porcellus, UniProt P30547)
# Experiment: Substance P NK1 receptor binding, tritiated Substance P, guinea pig submaxillary gland tissue
# Details: read-out: Ki Guinea Pig Submaxillary Gland Tissue (Substance P antagonist potency); tritiated Substance P 0.75 nM; Ki calculated from IC50 by Cheng-Prusoff
# Experimental: (§1) As stated above the compounds of Formula I are useful as Substance P antagonists and therefore as analgesic and/or antiinflammatory agents. Substance P antagonist NK1 receptor binding activity was determined using guinea pig submaxillary gland tissue and human astrocytoma cells.
# Submaxillary glands from both sexes of Hartley guinea pigs were obtained from Pel Freeze Biologicals, Rogers, Arkansas by overnight express in a plastic bag kept cold in wet ice. Extraneous tissue was removed and the glands were homogenized (Brinkman Polytron 10TS generator, 3-4 10-second bursts at a setting of 10) in ice cold buffer C (sodium chloride, 120 mM; potassium chloride, 5 mM; tromethamine [TRIS], 50 mM; pH adjusted to 7.40 with dilute hydrochloric acid; 100 mL for 50 submaxillary glands). The homogenate was centrifuged (16,000×g) at 4° C. for 15 minutes and the supernatant fluid was discarded. In order to release any native bound Substance P from its receptor approximately 200 mL of buffer B (potassium chloride, 500 mM; tromethamine, 50 mM; ethylenediaminetetraacetic acid [EDTA], 10 mM; pH adjusted to 7.40 with dilute hydrochloric acid) was added to the pellet, which was resuspended by low speed homogenization. The suspension was incubated at ice temperature for 30 minutes with periodic swirling and centrifuged, and the supernatant liquid was discarded. Tromethamine buffer (50 mM, pH adjusted to 7.40 with dilute hydrochloric acid, 200 mL) was added, the pellet was resuspended, the suspended mixture was centrifuged, the supernatant fluid was discarded, and this procedure was repeated. About twice the pellet volume of tromethamine buffer was added to the pellet and the resulting submaxillary gland tissue preparation (1.0 to 1.5 mL) was stored at -70° C. Using serum bovine albumin as the standard the protein yield was determined by the Bradford method (Bio-Rad, Richmond, Calif.) to be 7-8 mg/mL or about 250 mg from 50 submaxillary glands.
# To test for receptor binding a sample of the submaxillary gland tissue preparation was thawed on ice and rehomogenized with a glass homogenizer (Dounce). To a polystyrene test tube were added an aliquot of the resulting homogenate (200 μL containing 150-300 μg of protein), tromethamine buffer (100 μL), protease buffer (aqueous chymostatin, 5 μg/mL; leupeptin, 10 μg/mL; bacitracin, 100 μg/mL; manganous chloride, 3 mM; bovine serum albumin, 0.05%; tromethamine, 50 mM; pH adjusted to 7.40 with dilute hydrochloric acid; 100 μL) and tritiated Substance P (44-54 Ci/millimole, 0.75 nM in protease buffer, 100 μL). Dimethylsulfoxide alone (5 μL) or a dimethylsulfoxide solution (5 μL) of the test compound (amount such that 1:100 dilution gave the desired concentration thereof) was added to the tube. The mixture was allowed to reach equilibrium for 20-30 minutes, then filtered (Whatman GF/C filter, Brandel harvester). The residue on the filter was washed three times with tromethamine buffer (3 mL each time) and its radioactivity was measured in a liquid scintillation counter (Beckman LS5000) (x=number of counts per minute with test compound, y=number of counts per minute without test compound). Adding a large excess of untritiated Substance P (1 μM) to the protease buffer and carrying out the procedure without test compound gave a measure (z=number of counts per minute) of the nonspecific binding, which was generally less than 10% of the total binding. The dissociation constant (Kd) for receptor binding was determined by varying the concentration of tritiated Substance P. The following calculations were made:
# L=1n(% inhibition/% bound).
# Values of L for each test compound were plotted against the corresponding values of the log of the concentration of the test compound, a linear regression line was constructed, and the concentration of the test compound corresponding to L=0, which is defined as the IC50 value, was determined. […]
row,SMILES,Ki
1,O=C1N[C@@H](Cc2ccc(F)cc2)C(=O)N2[C@H]3Nc4ccccc4[C@@]3([C@]34C[C@H]5C(=O)N[C@@H](Cc6ccc(F)cc6)C(=O)N5[C@H]3Nc3ccccc34)C[C@@H]12,4600 nM
2,COc1ccc2c(c1)[C@@]1([C@]34C[C@H]5C(=O)N[C@@H](Cc6ccccc6)C(=O)N5[C@H]3Nc3ccccc34)C[C@H]3C(=O)N[C@@H](Cc4ccccc4)C(=O)N3[C@H]1N2,900 nM
3,O=C1N[C@@H](Cc2ccc(Cl)cc2)C(=O)N2[C@H]3Nc4ccccc4[C@@]3([C@]34C[C@H]5C(=O)N[C@@H](Cc6ccc(Cl)cc6)C(=O)N5[C@H]3Nc3ccccc34)C[C@@H]12,> 40000 nM
4,O=C1N[C@@H](Cc2ccccc2)C(=O)N2[C@H]3Nc4ccccc4[C@@]3([C@]34C[C@H]5C(=O)N[C@@H](Cc6ccccc6)C(=O)N5[C@H]3Nc3cccc(F)c34)C[C@@H]12,6370 nM
5,O=C1N[C@@H](Cc2ccccc2)C(=O)N2[C@H]3Nc4cccc(F)c4[C@@]3([C@]34C[C@H]5C(=O)N[C@@H](Cc6ccccc6)C(=O)N5[C@H]3Nc3cccc(F)c34)C[C@@H]12,> 40000 nM
6,Cc1ccc2c(c1)N[C@@H]1N3C(=O)[C@H](Cc4ccccc4)NC(=O)[C@@H]3C[C@]21[C@]12C[C@H]3C(=O)N[C@@H](Cc4ccccc4)C(=O)N3[C@H]1Nc1ccccc12,7800 nM

# Further lines, results first:
row,Ki,SMILES
1,2860 nM,O=C1N[C@@H](Cc2ccccc2)C(=O)N2[C@H]3Nc4ccccc4[C@@]3([C@]34C[C@H]5C(=O)N[C@@H](Cc6ccc(Cl)cc6)C(=O)N5[C@H]3Nc3ccccc34)C[C@@H]12
2,5800 nM,C=CC[C@@H]1NC(=O)[C@@H]2C[C@]3([C@]45C[C@H]6C(=O)N[C@@H](Cc7ccccc7)C(=O)N6[C@H]4Nc4ccccc45)c4ccccc4N[C@@H]3N2C1=O
3,> 40000 nM,CCC[C@@H]1NC(=O)[C@@H]2C[C@]3([C@]45C[C@H]6C(=O)N[C@@H](Cc7ccccc7)C(=O)N6[C@H]4Nc4ccccc45)c4ccccc4N[C@@H]3N2C1=O
4,1140 nM,O=C1N[C@@H](Cc2cccc(F)c2)C(=O)N2[C@H]3Nc4ccccc4[C@@]3([C@]34C[C@H]5C(=O)N[C@@H](Cc6cccc(F)c6)C(=O)N5[C@H]3Nc3ccccc34)C[C@@H]12
5,22800 nM,CC(C)[C@@H]1NC(=O)[C@@H]2C[C@]3([C@]45C[C@H]6C(=O)N[C@@H](Cc7ccccc7)C(=O)N6[C@H]4Nc4ccccc45)c4ccccc4N[C@@H]3N2C1=O
6,7580 nM,CC(C[C@@H]1NC(=O)[C@@H]2C[C@]3([C@]45C[C@H]6C(=O)N[C@@H](Cc7ccccc7)C(=O)N6[C@H]4Nc4ccccc45)c4ccccc4N[C@@H]3N2C1=O)C(F)(F)F (some centres unmarked)

# Target: NK1 (Homo sapiens, UniProt P25103)
# Experiment: Substance P NK1 receptor binding, 125I-Bolton Hunter Substance P, human astrocytoma cells (U-373 MG)
# Details: read-out: Ki Human Astrocytoma Cells (Substance P antagonist potency), U-373 MG cells, Ki calculated from IC50
# Experimental: as §1
# Human astrocytoma cells (U--373 MG, ATCC No. HTB 17) were cultured in 75-mL flasks in an aqueous medium containing horse serum (heat inactivated, 10%), minimum essential amino acids (2%), minimum essential vitamin solution (2%), and an aqueous solution of penicillin (10,000 units/mL) and streptomycin (10,000 μg/mL) (Penn-Strep, 2%), which was sterilized by filtration through a disposable filter (Nalgene, VWR Cat. No. 28199-585). The medium was replaced twice weekly. Cells were passaged (1:4 split) by removing the medium and adding aqueous trypsin (0.25%, 8 mL/flask). The flasks were swirled for 30 seconds, the aqueous trypsin was removed, and the cells were incubated for 5 minutes at room temperature, then washed twice with fresh medium (7 mL each time). Poly-D-lysine solution (50 μg/mL in aqueous phosphate saline buffer, 0.25 mL) was added to each well of a sterile 96-well […] plate (Corning), which was then incubated at room temperature for 40 minutes. The poly-D-lysine solution was removed, each well was washed twice with aqueous phosphate saline buffer (0.25 mL), cells were added (0.2 mL/well), and the plate was incubated at 37° C. for two days in an oxygen-carbon dioxide (95:5) atmosphere to provide a monolayer of 1.4-1.9×10^4 cells per well.
# To test for receptor binding the aqueous phosphate saline buffer was removed from each well, the cell monolayer was washed three times with assay buffer (aqueous 2-[4-(2-hydroxyethyl)-1-piperazinyl]ethanesulfonic acid [HEPES], 25 mM; potassium chloride, 5.8 mM; monopotassium phosphate, 2.2 mM; sodium chloride, 115 mM; magnesium sulfate, 0.6 mM; calcium chloride, 1.8 mM; bovine serum albumin, 1%; glucose, 5 mM; thiorphan, 1 μM; and bacitracin, 40 μg/mL; pH adjusted to 7.40 with dilute hydrochloric acid; 0.25 mL each time). To each well was then added assay buffer alone (0.1 mL) or a mixture (0.1 mL) with assay buffer as diluent containing ^125 I-Bolton Hunter Substance P (Amersham, Inc., Arlington Heights, Ill.; 0.1 nanomole) and test compound in amount to give the desired concentration thereof or, to determine nonspecific binding, unlabelled Substance P (0.1 micromole) and the plate was incubated at 25° C. for 90 minutes. Excess assay buffer or Substance P mixture was then removed and each well was washed four times with assay buffer (0.25 mL each time). The cells were detached from each well by addition of aqueous octoxynol (Triton X-100, 0.2%, 140 μL) containing bovine serum albumin (1 mg/L). The radioactivity of part (100 μL) of the detachment mixture was measured in a gamma ray counter (Packard Cobra). Kd and IC50 values were determined and a Ki value was calculated for each test compound as described above.
row,SMILES,Ki
1,Cc1ccc2c(c1)[C@@]1([C@]34C[C@H]5C(=O)N[C@@H](Cc6ccccc6)C(=O)N5[C@H]3Nc3ccc(C)cc34)C[C@H]3C(=O)N[C@@H](Cc4ccccc4)C(=O)N3[C@H]1N2,2850 nM
2,O=C1N[C@@H](Cc2ccccc2)C(=O)N2[C@H]3Nc4ccccc4[C@@]3([C@]34C[C@H]5C(=O)N[C@@H](Cc6ccccc6)C(=O)N5[C@H]3Nc3ccc(Br)cc34)C[C@@H]12,1500 nM
3,Cc1ccc(C[C@@H]2NC(=O)[C@@H]3C[C@]4([C@]56C[C@H]7C(=O)N[C@@H](Cc8ccc(C)cc8)C(=O)N7[C@H]5Nc5ccccc56)c5ccccc5N[C@@H]4N3C2=O)cc1,450 nM
4,Cc1cccc2c1[C@@]1([C@]34C[C@H]5C(=O)N[C@@H](Cc6ccccc6)C(=O)N5[C@H]3Nc3ccccc34)C[C@H]3C(=O)N[C@@H](Cc4ccccc4)C(=O)N3[C@H]1N2,440 nM
5,Cc1cccc2c1[C@@]1([C@]34C[C@H]5C(=O)N[C@@H](Cc6ccccc6)C(=O)N5[C@H]3Nc3cccc(C)c34)C[C@H]3C(=O)N[C@@H](Cc4ccccc4)C(=O)N3[C@H]1N2,5650 nM
6,O=C1N[C@@H](Cc2ccccc2)C(=O)N2[C@H]3Nc4ccccc4[C@@]3([C@]34C[C@H]5C(=O)N[C@@H](CC6CCCCC6)C(=O)N5[C@H]3Nc3ccccc34)C[C@@H]12,380 nM
7,O=C1N[C@@H](CC2CCCCC2)C(=O)N2[C@H]3Nc4ccccc4[C@@]3([C@]34C[C@H]5C(=O)N[C@@H](CC6CCCCC6)C(=O)N5[C@H]3Nc3ccccc34)C[C@@H]12,800 nM
8,Cc1ccc2c(c1)[C@@]1([C@]34C[C@H]5C(=O)N[C@@H](Cc6ccccc6)C(=O)N5[C@H]3Nc3ccccc34)C[C@H]3C(=O)N[C@@H](Cc4ccccc4)C(=O)N3[C@H]1N2,590 nM

# The next lines start with the values.
row,Ki,SMILES
1,160 nM,Cc1ccccc1C[C@@H]1NC(=O)[C@@H]2C[C@]3([C@]45C[C@H]6C(=O)N[C@@H](Cc7ccccc7C)C(=O)N6[C@H]4Nc4ccccc45)c4ccccc4N[C@@H]3N2C1=O
2,170 nM,O=C1N[C@@H](Cc2cccc(F)c2)C(=O)N2[C@H]3Nc4ccccc4[C@@]3([C@]34C[C@H]5C(=O)N[C@@H](Cc6cccc(F)c6)C(=O)N5[C@H]3Nc3ccccc34)C[C@@H]12
3,350 nM,Cc1ccc(C[C@@H]2NC(=O)[C@@H]3C[C@]4([C@]56C[C@H]7C(=O)N[C@@H](Cc8ccccc8)C(=O)N7[C@H]5Nc5ccccc56)c5ccccc5N[C@@H]4N3C2=O)cc1
4,220 nM,O=C1N[C@@H](Cc2ccccc2Cl)C(=O)N2[C@H]3Nc4ccccc4[C@@]3([C@]34C[C@H]5C(=O)N[C@@H](Cc6ccccc6Cl)C(=O)N5[C@H]3Nc3ccccc34)C[C@@H]12
5,3000 nM,O=C1N[C@@H](Cc2cccs2)C(=O)N2[C@H]3Nc4ccccc4[C@@]3([C@]34C[C@H]5C(=O)N[C@@H](Cc6cccs6)C(=O)N5[C@H]3Nc3ccccc34)C[C@@H]12
6,930 nM,O=C1N[C@@H](Cc2ccccc2)C(=O)N2[C@H]3Nc4ccccc4[C@@]3([C@]34C[C@H]5C(=O)N[C@@H](Cc6cccs6)C(=O)N5[C@H]3Nc3ccccc34)C[C@@H]12
7,260 nM,O=C1N[C@@H](Cc2ccccc2)C(=O)N2[C@H]3Nc4ccccc4[C@@]3([C@]34C[C@H]5C(=O)N[C@@H](Cc6ccccc6Cl)C(=O)N5[C@H]3Nc3ccccc34)C[C@@H]12
8,190 nM,Cc1ccccc1C[C@@H]1NC(=O)[C@@H]2C[C@]3([C@]45C[C@H]6C(=O)N[C@@H](Cc7ccccc7)C(=O)N6[C@H]4Nc4ccccc45)c4ccccc4N[C@@H]3N2C1=O
9,700 nM,O=C1N[C@@H](Cc2ccccc2)C(=O)N2[C@H]3Nc4ccccc4[C@@]3([C@]34C[C@H]5C(=O)N[C@@H](Cc6ccccc6F)C(=O)N5[C@H]3Nc3ccccc34)C[C@@H]12
